Values joined by “and” are separate entries in the source; they are usually repeats but may differ in a detail not shown here. Identical values can stand only once.
What was measured:
[1] = test system: patients with recurrent or residual cervical carcinoma; conditions: two weeks after vaccination; PBMC stimulated in vitro with 5 μg/ml peptide; proliferation index exceeded 5; listed as PADRE®; cited from earlier work
PBMC from normal donors = assay type: cell-based, human
[2] = test system: HLA-DR molecules (16 most prevalent); conditions: cited from earlier work

Substance | patients with PADRE-specific T cell proliferative response [1] | donors with primary T cell responses (PBMC from normal donors) | potency for activation of T cell responses relative to TT 830-843 antigen (PBMC from normal donors) | number of HLA-DR molecules bound [2]
aKXVAAWTLKAAa-NH2 | four of 12 and 4 out of 12 | all three donors | about 100 fold | –
QYIKANSKFIGITE [Epitope 553.01, reference compound] | – | 2 out of 3 | – | seven of 16
